Experimental data published in patent US8003630B2, “Combinatorial therapies for the treatment of neoplasias using the opioid growth factor receptor” (The Penn State Research Foundation, priority 2004, dated 2011).

Experiments:
[1] = Plasma levels of [Met^5]-enkephalin (OGF) by radioimmunoassay, MIA PaCa-2 tumor mice; conditions: at termination
Description: At the time of termination, trunk blood was collected from some mice in each group.

SCC-1 cells [2] = experiment: SCC-1 xenograft in nude mice, tumor growth, survival, termination day measurements (Example 9)
Description: (§1) Male 4 week old nu/nu nude mice purchased from Harlan Laboratories (Indianapolis, Ind.) were housed in pathogen-free isolators in the Department of Comparative Medicine at the Penn State University College of Medicine. All procedures were approved by the IACUC committee of the Penn State University College of Medicine and conformed to the guidelines established by NIH. Mice were allowed 48 hr to acclimate prior to beginning experimentation.
Tumor cells were inoculated into nude mice by subcutaneous injection into the right scapular region. Subcutaneous injections were performed with at least 2×10^6 cells per mouse; mice were not anesthetized for this procedure.
Dosages were selected based on published reports. […] Injections of drugs were initiated 1 hr after tumor cell inoculation. […] Mice were weighed weekly to determine drug dosage.
Mice were observed daily for the presence of tumors. The latency for a visible tumor to appear, and the time until tumors were measurable (i.e., 62.5 mm^3), were recorded. Tumors were measured using calipers every day. Tumor volume was calculated using the formula w^2×1×π/6, where the length is the longest dimension, and width is the dimension perpendicular to length.
According to institutional policies and IACUC guidelines, mice were terminated when tumors became ulcerated, or tumors grew to 2 cm in diameter. […] Tumors and spleens were removed and weighed, and the lymph nodes, liver, and spleen examined for metastases.

[3] = Plasma levels of OGF by radioimmunoassay, SCC-1 tumor mice; assay type: in vivo, nude mice; conditions: at termination
Procedure: Plasma samples were assayed in duplicate.

MIA PaCa-2 cells = experiment: MIA PaCa-2 xenograft in nude mice, tumor appearance, growth and termination day measurements (Example 7); conditions: day 45
Description: as §1, with “BALB/c-nu/nu” for “nu/nu”
MIA PaCa-2 cells (10^6 cells/mouse) were inoculated into nude mice by subcutaneous injection into the right scapular region; mice were not anesthetized for this procedure.
All drugs were dissolved in saline and prepared weekly. Injections were given within 1 hr of tumor cell inoculation.
Mice were weighed weekly throughout the experiment, and observed daily for the presence of tumors. The latency for a visible tumor to appear, and the time until tumors were measurable (i.e., 62.5 mm^3) were recorded. Tumors were measured using calipers every day after tumor appearance. Tumor volume was calculated using the formula w^2×1×π/6, where the length is the longest dimension, and width is the dimension perpendicular to length.
According to IACUC guidelines, mice were terminated when tumors became ulcerated, or tumors grew to 2 cm in diameter. Forty-five days following tumor cell inoculation, all mice were euthanized by an overdose of sodium pentobarbital (100 mg/kg) and killed by cervical dislocation; mice (with tumors) were weighed. Tumors and spleens were removed and weighed, and the lymph nodes, liver, and spleen examined for metastases.

SCC-1 cells [4] = experiment: Necrosis, trypan blue positivity of SCC-1 cells; conditions: SCC-1 cultures or supernatants
Procedure: Cell number was recorded either by using the MTS proliferation bioassay (Cell Titer 96 One Solution, Promega, Madison, Wis.) and measuring absorbency after 4 hr on a Biorad (Model 3550) plate reader at 490 nm with a 750 nm background absorbance screening, or by directly counting cells. The MTS assay utilized 10 wells/treatment. For manual counts, cells were harvested by trypsinization with 0.25% trypsin/0.53 mM EDTA, centrif uiged, and counted with a hemacytometer. Cell viability was determined by trypan blue staining. At least two aliquots per well, and 4-10 wells/treatment, were counted at each time for manual counting.

[5] = day 50 (paclitaxel group: day each mouse died), means ± SEM

## [Met^5]-enkephalin [OGF]
[1]
  OGF levels in plasma versus control mice: No differences
SCC-1 cells [2]; 50 days
  deaths during the experimental period: No mouse in the OGF or control groups died
SCC-1 cells [2]; [5]
  Body Weight: 32.0 ± 0.5 g
  Spleen Weight: 225 ± 12 mg
SCC-1 cells [2]; mouse, in vivo
  body weights versus control animals: No differences in body weights
  gross observations and pathological findings: No pathological relevant findings
[3]
  OGF levels in plasma versus control mice with tumors: No differences
MIA PaCa-2 cells
  weight of the spleen decreased from control values: no changes in spleen weight
MIA PaCa-2 cells; means ± SEM
  Body Weight: 31.4 ± 1.6 g
  Spleen Weight: 606 ± 121 mg
SCC-1 cells [4]
  necrosis, number of trypan blue positive cells versus control: No differences in necrosis
